How the values were obtained:
PAH subjects = assay: 6-minute walk test (6MWT) with SpO2 measurement, protocol Pulse-PAH-201, pulsed iNO added to LTOT; details: for Improvement in SpO2 Nadir (5% or more) / Improvement in SpO2 Nadir (2% or more) / Improvement in SpO2 Nadir / Drop or no change in SpO2 Nadir: share of PAH subjects, during 6MWT; for Improvement in SpO2 Nadir (5% or more): placebo 10%; for Improvement in SpO2 Nadir (2% or more): placebo 22%; for Improvement in SpO2 Nadir: placebo 34%; for Drop or no change in SpO2 Nadir: placebo 66%
Method: (§1) Patients suffering from pulmonary hypertension associated with idiopathic pulmonary fibrosis (PH-IPF), and patients diagnosed pulmonary arterial hypertension (PAH) as WHO Diagnostic Group 1 were tested in this study example. The patients included in this study were all on long term oxygen therapy (LTOT) and have been on LTOT for at least 3 months and for at least 10 hours per day. The results of this study, and the SpO2 measurements specifically, were derived from a clinical study measuring the effects of iNO on functional respiratory imaging parameters in certain patient populations.
The PAH patients were tested according to the following procedure per protocol Pulse-PAH-201: A baseline measurement of SpO2 was taken within 24 hours of the start of the study. A 6-minute walk test (6MWT) was given, and SpO2 measurements were taken at baseline and at the end of the 6MWT. Following baseline measurements, the subjects were put on either 25 mcg/kgIBW/hr or 75 mcg/kgIBW/hr of iNO for 16 weeks, along with their LTOT they were already receiving. 6MWT and SpO2 measurements were taken at 4 weeks, 8 weeks, 12 weeks, and 16 weeks.

PH-IPF patients = assay: 6-minute walk test (6MWT) with SpO2 measurement, protocol Pulses-COPD-006 Part 2, pulsed iNO added to LTOT; details: for 6MWD (meters), 4 Weeks / Distance Saturation Product [DSP] (meter%), 4 Weeks / Oxygen desaturation during 6MWT (% SpO2), 4 Weeks / Nadir SpO2 (% SpO2), 4 Weeks / 6MWD, Meters improvement at 4 weeks / Distance Saturation Product [DSP], Improvement at 4 weeks (meter%) / Nadir SpO2, Percent Improvement at 4 weeks / Oxygen desaturation during 6MWT, Percent Improvement at 4 weeks: one PH-IPF patient; for Distance Saturation Product [DSP] (meter%), 4 Weeks: 6MWD multiplied by nadir SpO2; for Nadir SpO2 (% SpO2), 4 Weeks: during 6MWT; for 6MWD, Meters improvement at 4 weeks / Distance Saturation Product [DSP], Improvement at 4 weeks (meter%) / Nadir SpO2, Percent Improvement at 4 weeks / Oxygen desaturation during 6MWT, Percent Improvement at 4 weeks: versus baseline
Method: as §1
PH-IPF patients were tested according to the following procedure per protocol Pulses-COPD-006 Part 2: A baseline measurement of SpO2 was taken within 24 hours of the start of the study. A 6-minute walk test (6MWT) was given, and SpO2 measurements were taken every minute during the 6MWT. Following baseline measurements, the subjects were put on either 30 mcg/kgIBW/hr or 75 mcg/kgIBW/hr of iNO for 4 weeks, along with their LTOT they were already receiving. 6MWT and SpO2 measurements were taken again at 2 weeks and 4 weeks, and iNO was then discontinued. The 6MWT and SpO2 measurements were taken again at 6 weeks after 2 weeks of only the LTOT.
In addition, the level of oxygen desaturation during exercise improved for both subjects, representing an average improvement of 28.5%.
The DSP is calculated by multiplying the distance (6MWD) by the nadir in the oxygen saturation during the 6MWT. […]

[1] = average of 2 PH-IPF patients (one iNO75, one iNO30), 4 weeks versus baseline

## [N]=O
PAH subjects; PAH subjects, iNO75 cohort (75mcg/kgIBW/hr)
  improvement in SpO2 Nadir during the 6MWT after 16 weeks of treatment (in words): All test subjects showed improvement
PAH subjects; PAH subjects, iNO75 cohort (75mcg/kgIBW/hr), 16 weeks
  share of subjects showing improvement of 5% or more in SpO2 Nadir (in words): half
PAH subjects; iNO 25mcg/kgIBW/hr, 16 weeks
  Improvement in SpO2 Nadir (5% or more): 10%
  Improvement in SpO2 Nadir (2% or more): 50%
  Improvement in SpO2 Nadir: 60%
  Drop or no change in SpO2 Nadir: 40%
PAH subjects; iNO 75mcg/kgIBW/hr, 16 weeks
  Improvement in SpO2 Nadir (5% or more): 50%
  Improvement in SpO2 Nadir (2% or more): 88%
  Improvement in SpO2 Nadir: 100%
  Drop or no change in SpO2 Nadir: 0%
PH-IPF patients; [1]
  average improvement in the SpO2 Nadir: 5.5%
  average improvement of the level of oxygen desaturation during exercise: 28.5%
PH-IPF patients; average of 2 PH-IPF patients (one iNO75, one iNO30), 4 weeks versus baseline with LTOT alone
  average DSP improvement: 78.1 m%
PH-IPF patients; iNO 30mcg/kgIBW/hr, 12.8 hrs/day, baseline 510 m
  6MWD (meters), 4 Weeks: 560 m
PH-IPF patients; iNO 30mcg/kgIBW/hr, baseline 423.3 m%
  Distance Saturation Product [DSP] (meter%), 4 Weeks: 498.4 m%
PH-IPF patients; iNO 30mcg/kgIBW/hr, baseline 15%
  Oxygen desaturation during 6MWT (% SpO2), 4 Weeks: 11%
PH-IPF patients; iNO 30mcg/kgIBW/hr, baseline 83%
  Nadir SpO2 (% SpO2), 4 Weeks: 89%
PH-IPF patients; iNO 30mcg/kgIBW/hr
  6MWD, Meters improvement at 4 weeks: 50 m
  Distance Saturation Product [DSP], Improvement at 4 weeks (meter%): 75.1 m%
  Nadir SpO2, Percent Improvement at 4 weeks: 7%
  Oxygen desaturation during 6MWT, Percent Improvement at 4 weeks: 27%
PH-IPF patients; iNO 75 mcg/kgIBW/hr, 23.8 hrs/day, baseline 98 m
  6MWD (meters), 4 Weeks: 197 m
PH-IPF patients; iNO 75 mcg/kgIBW/hr, baseline 74.5 m%
  Distance Saturation Product [DSP] (meter%), 4 Weeks: 155.6 m%
PH-IPF patients; iNO 75 mcg/kgIBW/hr, baseline 23%
  Oxygen desaturation during 6MWT (% SpO2), 4 Weeks: 16%
PH-IPF patients; iNO 75 mcg/kgIBW/hr, baseline 76%
  Nadir SpO2 (% SpO2), 4 Weeks: 79%
PH-IPF patients; iNO 75 mcg/kgIBW/hr
  6MWD, Meters improvement at 4 weeks: 99 m
  Distance Saturation Product [DSP], Improvement at 4 weeks (meter%): 81.1 m%
  Nadir SpO2, Percent Improvement at 4 weeks: 4%
  Oxygen desaturation during 6MWT, Percent Improvement at 4 weeks: 30%
